Source: patent US10806913B2, “Methods for better delivery of active agents to tumors” (Sorrento Therapeutics, Inc., priority 2015, dated 2020)

Tested on: JIMT-1 tumors
Experiment: Delivery of trastuzumab to xenograft tumors via administration to the skin
Type: in vivo, mice
Procedure: The ability to deliver trastuzumab (an anti-cancer drug) to tumors via administration to the skin was tested in a mouse xenograft tumor model. The HER-2 positive JIMT-1 human breast cancer cell line was used to generate xenograft tumors in mice. An array of needles having a nanotopography surface was fabricated on a patch and applied to the dorsal surface of mice presenting with tumors. These mice were then administered different amounts of trastuzumab at different administration rates to the skin and the concentration of trastuzumab in tumors was assessed.

Substance: trastuzumab
- concentration of trastuzumab in tumors (0.22 mg to the skin at 100 μ1/hr compared to 2 mg i.v., FIG. 8): higher concentrations
- efficacy in treating tumors (areas of tumor necrosis) (skin administration compared to higher doses given intravenously, FIG. 9A-B): greater or equivalent efficacy
